System: Tetranychus urticae
Experiment: Tetranychus urticae (Two-Spotted Spider Mite): Feeding/Contact Activity
Details: for mortality at an application rate of 12.5 ppm or even lower: bean leaf discs, mixed population (mobile stages), 8 days after infestation; for % mortality: comparison test as in Example B1
Protocol: Example B1: Tetranychus urticae (Two-Spotted Spider Mite): Feeding/Contact Activity
Bean leaf discs on agar in 24-well microtiter plates were sprayed with aqueous test solutions prepared from 10′000 ppm DMSO stock solutions. After drying the leaf discs were infested with a mite population of mixed ages. The samples were assessed for mortality on mixed population (mobile stages) 8 days after infestation.

Row | Structure (SMILES) | mortality at an application rate of 12.5 ppm or even lower | % mortality (0.2 ppm) [%] | % mortality (0.8 ppm) [%] | % mortality (3 ppm) [%] | % mortality (12.5 ppm) [%] | % mortality (50 ppm) [%] | % mortality (200 ppm) [%]
1 | CCN(C)S(=O)(=O)C1CCN(C(=O)c2cc(C#N)c(-c3ccc4c(c3)OC(F)(F)O4)nc2C)CC1 | at least 80% | – | – | – | – | – | –
2 | CNS(=O)(=O)C1CCN(C(=O)c2cc(C#N)c(-c3ccc(C(F)(F)F)cc3)nc2C(F)(F)F)CC1 | – | 0 | 0 | 0 | 80 | 100 | 100
3 | CCNS(=O)(=O)C1CCN(C(=O)c2cc(C#N)c(-c3ccc4c(c3)OC(F)(F)O4)nc2C(F)F)CC1 | at least 80% | – | – | – | – | – | –
4 | CCN(C)S(=O)(=O)C1CCN(C(=O)c2cc(C#N)c(-c3ccc(C(F)(F)F)cc3)nc2C(F)(F)F)CC1 | at least 80% | 0 | 0 | 80 | 100 | 100 | 100
5 | CCNS(=O)(=O)C1CCN(C(=O)c2cc(C#N)c(-c3ccc(C(F)(F)F)cc3)nc2C(F)(F)F)CC1 | at least 80% | 0 | 80 | 100 | 100 | 100 | 100
6 | CCN(C)S(=O)(=O)C1CCN(C(=O)c2cc(C#N)c(-c3ccc4c(c3)OC(F)(F)O4)nc2C(F)F)CC1 | at least 80% | – | – | – | – | – | –
7 | CN(C)S(=O)(=O)C1CCN(C(=O)c2cc(C#N)c(-c3ccc(C(F)(F)F)cc3)nc2C(F)(F)F)CC1 | – | 0 | 0 | 0 | 80 | 100 | 100
8 | CCN(C)S(=O)(=O)C1CCN(C(=O)c2cc(C#N)c(-c3ccc4c(c3)OC(F)(F)O4)nc2COC)CC1 | at least 80% | – | – | – | – | – | –
9 | CCNS(=O)(=O)C1CCN(C(=O)c2cc(C#N)c(-c3ccc4c(c3)OC(F)(F)O4)nc2COC)CC1 | at least 80% | – | – | – | – | – | –
